Assay: Randomized cross-over study of nebulizers, peak sputum tobramycin
Conditions: Pari LC; 60 mg/mL in 5 mL 1/4 NS

NC[C@H]1O[C@H](O[C@H]2[C@H](O)[C@@H](O[C@H]3O[C@H](CO)[C@@H](O)[C@H](N)[C@H]3O)[C@H](N)C[C@@H]2N)[C@H](N)C[C@@H]1O [tobramycin]
patients with sputum concentrations larger or equal to 128 μg/g: 87% | patients with sputum concentrations lower than 128 μg/g: 13%
